Experiment: Pharmacokinetic study of MBL-II-141, CPT-11 and SN-38 (blood, liver, brain; LC-MS/MS)
Details: CPT-11 20 mg/kg + MBL-II-141 10 mg/kg IP

SMILES: CCc1c2c(nc3ccc(OC(=O)N4CCC(N5CCCCC5)CC4)cc13)-c1cc3c(c(=O)n1C2)COC(=O)[C@]3(O)CC [CPT-11, irinotecan]
- impact of MBL-II-141 on CPT-11 liver levels: no impact

From publication PMC4323000 (Oncotarget, 2015)
